For two compounds, Ratio Ki results are on record in ChEMBL document CHEMBL3351542, “Nonpeptide small molecule agonist and antagonist original leads for neuropeptide FF1 and FF2 receptors” (J Med Chem, 2014).

The species named for the experiment is Homo sapiens. The experiment in a line: Selectivity ratio of Ki for human MOR to Ki for human NPFF1 receptor.

Turning to `N=C(N)NCC(=O)NCC1(Nc2cccc3ccccc23)CCN(Cc2ccccc2)CC1`, the Ratio Ki was 7.

Consider `COc1cc(NC2(CNC(=O)CNC(=N)N)CCN(Cc3ccccc3)CC2)cc(OC)c1`, for which the Ratio Ki is 7.
